Test system: MV4-11 cells
Experiment: MV4-11 cell proliferation inhibition experiment (CellTiter-Glo)
Assay type: cell-based
Conditions: Homo sapiens, MV4-11, 72 h, read-out: Cell proliferation inhibition activity
Description: The number of living cells in the culture was determined by quantitative determination of intracellular ATP using CellTiter-Glo® Luminescent Cell Viability Assay kit.
In the first step, MV4-11 cells were inoculated into 96-well plates with a density of 2500 cells per well and a volume of 100 μL per well. The plates were placed in 37° C., 5% carbon dioxide incubator overnight.
In the second step, cells were treated with compounds. The compounds to be tested were diluted 3 times, and 8 concentration gradients were set up. Each well was added with a certain volume of DMSO or the compound to be tested, and each concentration was tested in 2 replicates, and the final concentration of DMSO was 0.5%. The plates were placed in 37° C., 5% carbon dioxide incubator for 72 h.
In the third step, cell viability of the control groups and the treatment groups was determined using CellTiter-Glo® Luminescent Cell Viability Assay kit (Promega, G7570). Each well was added with 50 uL CellTiter-Glo. The culture was mixed well, and incubated at room temperature for 10 min. Signals were read using EnSpire (Perkin Elmer). Inhibition percentages (%) were calculated by the following formula:
Inhibition percentage (%)=(1−signal value of compound treatment group/signal value of DMSO treatment group)*100.

An IC50 of 1.6 µM was found for CC1(N)CCN(c2cnc(-c3cccc(Cl)c3Cl)c(N)n2)CC1 [SHP099, 6-(4-amino-4-methylpiperidine-1-yl)-3-(2,3-dichlorophenyl)pyrazine-2-amine, reference compound] in this work.
